The target of the assay is estrogen receptor β (Homo sapiens, UniProt Q92731). Kind of assay: Luciferase reporter assay using cell of the present invention (estrogen receptor β, HeLa cell). To be noted: 17β estradiol concentration increased 10-fold per district (0.1 pM to 100 nM); 36 hours; FIG. 3.

Protein sequences, listed by entry. Tags and fused reporters are not part of them.
UniProt Q92731, whole entry: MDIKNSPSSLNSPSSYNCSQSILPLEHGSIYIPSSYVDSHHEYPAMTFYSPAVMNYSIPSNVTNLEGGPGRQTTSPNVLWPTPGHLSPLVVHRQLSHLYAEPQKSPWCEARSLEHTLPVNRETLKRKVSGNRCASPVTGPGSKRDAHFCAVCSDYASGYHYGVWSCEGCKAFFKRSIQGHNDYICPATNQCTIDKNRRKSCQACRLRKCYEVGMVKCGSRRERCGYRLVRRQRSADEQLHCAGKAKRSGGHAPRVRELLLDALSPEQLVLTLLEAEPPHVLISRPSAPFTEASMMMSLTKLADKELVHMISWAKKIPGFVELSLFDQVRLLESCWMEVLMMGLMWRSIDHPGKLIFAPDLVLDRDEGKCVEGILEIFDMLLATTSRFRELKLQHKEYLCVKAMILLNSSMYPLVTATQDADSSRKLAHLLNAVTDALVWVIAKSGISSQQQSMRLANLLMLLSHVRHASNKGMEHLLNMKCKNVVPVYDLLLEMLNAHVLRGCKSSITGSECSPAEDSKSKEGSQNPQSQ

As to `C[C@]12CC[C@@H]3c4ccc(O)cc4CC[C@H]3[C@@H]1CC[C@@H]2O` [17β estradiol, 17β-estradiol], the “luciferase activity, estrogen receptor β cell” value is given as “Increase in luciferase activity along with the increase in the concentration”.
